Measured values from patent US20250304600A1, “PHARMACEUTICAL COMPOUNDS AND COMPOSITIONS AS c-KIT KINASE INHIBITORS” (Enanta Pharmaceuticals, Inc., priority 2023, published 2025).

Protein sequences, listed by entry. Tags and fused reporters are not part of them. Residues count along the entry.
UniProt P10721, 544-976 limits assumed: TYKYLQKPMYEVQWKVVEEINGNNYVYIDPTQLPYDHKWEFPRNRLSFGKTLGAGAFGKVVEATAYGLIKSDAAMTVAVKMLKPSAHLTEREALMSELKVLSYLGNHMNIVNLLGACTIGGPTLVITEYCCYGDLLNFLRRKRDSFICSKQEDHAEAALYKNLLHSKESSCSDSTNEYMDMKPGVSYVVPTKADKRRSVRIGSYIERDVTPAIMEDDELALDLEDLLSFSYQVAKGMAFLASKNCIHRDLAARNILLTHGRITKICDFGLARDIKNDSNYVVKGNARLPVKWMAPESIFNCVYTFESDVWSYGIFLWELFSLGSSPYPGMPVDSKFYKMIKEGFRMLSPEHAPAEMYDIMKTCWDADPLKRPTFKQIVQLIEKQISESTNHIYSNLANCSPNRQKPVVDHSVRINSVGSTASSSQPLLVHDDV

Key:
[1] = system: M-07e cells which endogenously express human c-KIT; assay: M-07e cellular assay: SCF-mediated cell proliferation (CellTiter Glo); details: read-out: M-07e EC50, SCF-mediated proliferation of M-07e cells, 72 hours
[2] = target: Recombinant human c-KIT kinase (Homo sapiens, UniProt P10721); assay: c-KIT kinase chemiluminescence assay (ADP-Glo); details: read-out: c-Kit IC50, ATP 50 μM

| SMILES | EC50 [1] [nM] | IC50 [2] [µM] |
| --- | --- | --- |
| O=C(Nc1cc(-c2noc([C@H]3C[C@@H](OC(F)F)C3)n2)cnc1Cl)c1cnn2ccc(N3CC4(C3)CC(O)(C(F)(F)F)C4)cc12 | 100 to 1000 | > 1 |
| Cc1ccc(-c2nc([C@H]3C[C@@H]3F)c[nH]2)cc1NC(=O)c1cnn2ccc(N3CC4(COC4)C3)cc12 | < 100 | – |
| Cc1ccc(-c2nc([C@H]3C[C@@H]3F)co2)cc1NC(=O)c1cnn2ccc(N3CC4(COC4)C3)cc12 | < 100 | – |
| Cc1ccc(-c2noc([C@H]3C[C@@H]3F)n2)cc1NC(=O)c1cnc(-c2ccc3c(c2)c(C)nn3CC(C)(C)O)o1 | < 100 | < 0.1 |
